From US4649911A, “Small particle aerosol generator for treatment of respiratory disease including the lungs” (Baylor College of Medicine, priority 1986, dated 1987)

Details: FIG. 7 apparatus

## NC(=O)c1ncn([C@@H]2O[C@H](CO)[C@@H](O)[C@H]2O)n1 [ribavirin]
300 ml volume, after 5 hours of operation
  concentration of ribavirin in the nebulizer flask: 35.4 mg per ml
5 hours of operation
  increase of ribavirin concentration in the nebulizer flask: about 15%
Initially (31 mg per ml in flask)
  output of drug in small particle aerosol: 325 micrograms per liter
